# “And” between values parts separate entries of the source, which are not always exact repeats. Identical values can stand only once.
# Legend:
# [1] = test system: sheep RBC; test: Red blood cell (RBC) lysis assay; format: cell-based; conditions: for % lysis at 5 μg/ml / % lysis at 500 μg/ml / % lysis at 50 μg/ml: sheep RBC 1% (v/v), 1 hour at 37° C.; for % lysis at 5 μg/ml: 5 μg/ml peptide; for % lysis at 500 μg/ml: 500 μg/ml peptide; for RBC lysis grouping / comparison: compared with MBI 11CN (low lysis) and Gramicidin-S (high lysis); for % lysis at 50 μg/ml: 50 μg/ml peptide
# Experimental: Generally, the analogue will be in a suitable formulation buffer. […] An analogue that is not lytic, or is only moderately lytic, as exemplified in Example 8, is desirable and is suitable for further screening.
# A red blood cell (RBC) lysis assay is used to group peptides according to their ability to lyse RBC under standardized conditions compared with MBI 11CN and Gramicidin-S. Peptide samples and washed sheep RBC are prepared in isotonic saline with the final pH adjusted to between 6 and 7. Peptide samples and RBC suspension are mixed together to yield solutions that are 1% (v/v) RBC and 5, 50 or 500 μg/ml peptide. Assay mixtures are incubated for 1 hour at 37° C. with constant shaking, centrifuged, and the supernatant is measured for absorbance at 540 nm, which detects released hemoglobin. The percentage of released hemoglobin is determined by comparison with a set of known standards lysed in water. Each set of assays also includes MBI 11CN (500 μg/ml) and Gramicidin-S (5 μg/ml) as “low lysis” and “high lysis” controls, respectively.
# [2] = Toxicity of APS-modified and unmodified MBI 11CN, single iv dose; format: in vivo, Swiss CD-1 mice; conditions: for MTD: highest dose giving 100% survival; for % Dead / Cumulative Dead / No. Surviving (cumulative): iv
# [3] = In vitro lifetime of free peptide in plasma; format: in vitro ADME, sheep; conditions: for apparent half-life of free peptide: sheep plasma, 37° C., 100 μg/mL
# [4] = Acute single dose toxicity in isotonic saline (ip, iv, sc); format: in vivo, Swiss CD1 mice; conditions: 5 days
# Experimental: In vivo toxicity of an analogue is measured through administration of a range of doses to animals, typically mice, by a route defined in part by the intended clinical use. […]. Analogues less toxic than indolicidin are preferred.
# The acute, single dose toxicity of various indolicidin analogues is tested in Swiss CD1 mice using various routes of administration. In order to determine the inherent toxicities of the peptide analogues in the absence of any formulation/delivery vehicle effects, the peptides are all administered in isotonic saline with the final pH between 6 and 7.
# Intraperitoneal route. […]. […] The LD50 values are calculated using the method of Reed and Muench (J. of Amer. Hyg. 27: 493-497, 1938).
# Intravenous route. […]. […].
# Subcutaneous route. The toxicity of MBI 11CN is also determined after subcutaneous (SC) administration. […]. After administration, the mice are observed for a period of 5 days. None of the animals died at any of the dose levels within the 5 day observation period. […]. […] These symptoms are reversible, disappearing in all mice by the second day of observations.
# [5] = Single and multiple dose toxicity in different formulations; format: in vivo, outbred ICR mice; conditions: for dose up to which no toxicity is shown: ip
# Experimental: The single dose toxicity of MBI 10CN and MBI 11CN in different formulations is also examined in outbred ICR mice (Table 16). Intraperitoneal injection (groups of 2 mice) of MBI 10CN in formulation D show no toxicity up to 29 mg/kg and under the same conditions MBI 11CN show no toxicity up to 40 mg/kg.
# Intravenous injection (groups of 10 mice) of MBI 10CN in formulation D show a maximum tolerated dose (MTD) of 5.6 mg/kg (Table 16). Injection of 11 mg/kg gave 40% toxicity and 22 mg/kg result in 100% toxicity. Intravenous injection of MBI 11CN in formulation C (lyophilized) show a MTD of 3.0 mg/kg. Injection at 6.1 mg/kg result in 10% toxicity and at 12 mg/kg 100% toxicity.
# If the peptide solution is not lyophilized before injection, but used immediately after preparation, an increase in toxicity is seen, and the maximum tolerated dose can decrease by up to four-fold. For example, an intravenous injection of MBI 11CN as a non-lyophilized solution, formulation C1, at 1.5 mg/kg results in 20% toxicity and at 3.0 mg/kg gave 100% toxicity. HPLC analyses of the non-lyophilized and lyophilized formulations indicate that the MBI 11CN forms a complex with polysorbate, and this complexation of the peptide reduces its toxicity in mice.
# In addition, mice are multiply injected by an intravenous route with MBI 11CN (Table 17). In one representative experiment, peptide administered in 10 injections of 0.84 mg/kg at 5 minute intervals is not lethal. However, two injections of peptide at 4.1 mg/kg administered with a 10 minute interval results in 60% mortality.
# [6] = Peptide levels in plasma in vivo after iv or ip administration; parameters: species or system CD1 ICRBR strain mice
# Experimental: Peptide levels in plasma in vivo are measured after iv or ip administration of 80-100% of the maximum tolerated dose of peptide analogue in either formulation C1 or D. MBI 11CN in formulation C1 is injected intravenously into the tail vein of CD1 ICRBR strain mice. At various times post-injection, mice are anesthetized and blood is drawn by cardiac puncture. Blood from individual mice is centrifuged to separate plasma from cells. Plasma is then analyzed by reversed phase HPLC column. […] Each data point represents the average blood level from two mice. In this assay, the detection limit is approximately 1 μg/ml, less than 3% of the dose administered.
# The earliest time point at which peptide can be measured is three minutes following injection, thus, the maximum observed concentration (in μg/ml) is extrapolated back to time zero (FIG. 12). The projected initial concentration corresponds well to the expected concentration of between 35 and 45 μg/ml.
# In addition, MBI 11CN is also administered to CD1 ICRBR strain mice by a single ip injection at an efficacious dose level of 40 mg/kg. Peptide is administered in both formulations C1 and D to determine if peptide complexation has any effect on blood levels. At various times post injection, mice are anesthetized and blood is drawn by cardiac puncture. Blood is collected and analyzed as for the iv injection.
# [7] = Solubility in broth (visual inspection); format: physicochemical
# Experimental: Solubility of the peptide analogue in formulation buffer is an additional parameter that may be examined. Several different assays may be used, such as appearance in buffer. Briefly, peptide analogue is suspended in solution, such as broth or formulation buffer. The appearance is evaluated according to a scale that ranges from (a) clear, no precipitate, (b) light, diffuse precipitate, to (c) cloudy, heavy precipitate. Finer gradations may be used. In general, less precipitate is more desirable. However, some precipitate may be acceptable.
# The solubility of peptide analogues is assessed in calcium and magnesium supplemented Mueller Hinton broth by visual inspection. The procedure employed is that used for the broth dilution assay except that bacteria are not added to the wells. The appearance of the solution in each well is evaluated according to the scale: (a) clear, no precipitate, (b) light diffuse precipitate and (c) cloudy, heavy precipitate.
substance,measurement,setting,value
Gramicidin-S [reference compound],% lysis at 5 μg/ml,[1],30%
I L K K W P W W P W R R K [MBI 11CN-TFA],LD50,[2]; single iv dose in 0.9% saline,7 mg/kg
same,LD90-100,[2]; single iv dose in 0.9% saline,8 mg/kg
same,MTD,[2]; single iv dose in 0.9% saline,5 mg/kg
same,% lysis at 500 μg/ml,[1],9%
I L K K W P W W P W R R K [MBI 11CN],% Dead,[2]; 3 mg/kg,0%
same,Cumulative Dead,[2]; 3 mg/kg,0
same,No. Surviving (cumulative),[2]; 3 mg/kg,12
same,% Dead,[2]; 5 mg/kg,0%
same,Cumulative Dead,[2]; 5 mg/kg,0
same,No. Surviving (cumulative),[2]; 5 mg/kg,6
same,% Dead,[2]; 8 mg/kg,100%
same,Cumulative Dead,[2]; 8 mg/kg,6
same,No. Surviving (cumulative),[2]; 8 mg/kg,0
same,% Dead,[2]; 10 mg/kg,100%
same,Cumulative Dead,[2]; 10 mg/kg,12
same,No. Surviving (cumulative),[2]; 10 mg/kg,0
same,% Dead,[2]; 13 mg/kg,100%
same,Cumulative Dead,[2]; 13 mg/kg,18
same,No. Surviving (cumulative),[2]; 13 mg/kg,0
same,LD50,[2]; single iv dose in 0.9% saline,7 mg/kg
same,dose with all subjects dying,[2]; single iv dose in 0.9% saline,8 mg/mL
same,MTD,[2]; single iv dose in 0.9% saline,5 mg/kg
same,apparent half-life of free peptide,[3]; formulation C1,1.5 h
same,peptide immediately released from formulation-peptide complex,"[3]; formulation D, on addition to the blood",up to 50%
same,apparent half-life of free peptide,[3]; formulation D,1.5 h
same,LD90-100,[4]; intraperitoneal,40 mg/kg
same,dose up to which no toxicity is shown,[5]; formulation D,40 mg/kg
same,toxicity,"[5]; iv, formulation C (lyophilized), 6.1 mg/kg",10%
same,toxicity,"[5]; iv, formulation C (lyophilized), 12 mg/kg",100%
same,Result (mortality),"[5]; iv, formulation D, 2 injections of 4.1 mg/kg with 10 min interval, 4.1 mg/kg",60% and 66%
same,toxicity,"[5]; iv, non-lyophilized solution, formulation C1, 3.0 mg/kg",100%
same,Free circulating peptide in blood,"[6]; iv, formulation D",not detectable
same,blood level after 60 minutes,"[6]; single ip 40 mg/kg, formulation C1",non-detectable levels
I L K K W V W W P W R R K [MBI 11F3CN-HCl],LD90-100,[4]; intravenous,12 mg/kg
same,RBC lysis grouping / comparison,[1],significantly less lytic than the other two variants
same,% lysis at 5 μg/ml,[1],1%
same,% lysis at 50 μg/ml,[1],6%
same,% lysis at 500 μg/ml,[1],17%
I L K K W V W W P W R R K [MBI 11F3CN],LD90-100,[4]; intraperitoneal,80 mg/kg
I L P W K W P W W P W R R [MBI 10CN],dose up to which no toxicity is shown,[5]; formulation D,29 mg/kg
same,toxicity,"[5]; iv, formulation D, 11 mg/kg",40%
same,toxicity,"[5]; iv, formulation D, 22 mg/kg",100%
same,Solubility in broth (visual appearance),[7]; calcium and magnesium supplemented Mueller Hinton broth,less soluble than MBI 11CN
I L R W P W W P W R R K [MBI 11B7CN-HCl],LD90-100,[4]; intravenous,16 mg/kg
same,% lysis at 5 μg/ml,[1],4%
same,% lysis at 50 μg/ml,[1],13%
same,% lysis at 500 μg/ml,[1],46%
I L R W P W W P W R R K [MBI 11B7CN],LD90-100,[4]; intraperitoneal,>80 mg/kg
I L R W V W W V W R R K [MBI 11F4CN-HCl],LD90-100,[4]; intravenous,20 mg/kg
same,% lysis at 5 μg/ml,[1],4%
same,% lysis at 50 μg/ml,[1],32%
same,% lysis at 500 μg/ml,[1],38%
I L R W V W W V W R R K [MBI 11F4CN],RBC lysis grouping / comparison,[1],most insoluble and hemolytic of the peptides tested
same,Solubility ranking among the peptides tested,[7],most insoluble and hemolytic of the peptides tested
i L K K W P W W P W R R k [MBI 11E3CN],LD90-100,[4]; intraperitoneal,40 mg/kg
